## Ab-14 heavy chain CDR variants: yeast mating affinities

Source: Li et al. 2023 (doi:10.1038/s41467-023-39022-2), MIT Lincoln Laboratory and A-Alpha Bio; data file from the FLAb repository.

The target is the same throughout: PDVDLGDISGINAS, from the HR2 region of SARS-CoV-2 spike.

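The starting antibody came from a phage panning campaign against this peptide. This is the validation round: designs drawn from the data on random variants, tested in the same kind of assay. Group labels follow the data file (Ctrl: baseline library sampled from a position-specific scoring matrix, with some repeated check sequences; GPLM: also part of the Gaussian process libraries; Gen: genetic algorithm; a sequence that several methods proposed may carry one label only). The scFvs were displayed on barcoded MATa yeast, the peptide on MATalpha yeast. Mating (16 h, 30 °C) was followed by selection of diploids and sequencing of their barcodes. The ratio of observed to expected reads was calibrated, replicate by replicate, on BCL2-family standards whose Kd was known from biolayer interferometry. The assay was run in six technical replicates.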

Parent: Ab-14, a human scFv built as VH, a (GGGGS)3 linker, VL. Only the CDRs of the heavy chain vary.
VH: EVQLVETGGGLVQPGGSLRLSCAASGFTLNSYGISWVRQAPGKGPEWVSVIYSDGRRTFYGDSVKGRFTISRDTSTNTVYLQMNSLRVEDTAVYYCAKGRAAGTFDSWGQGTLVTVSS
VL: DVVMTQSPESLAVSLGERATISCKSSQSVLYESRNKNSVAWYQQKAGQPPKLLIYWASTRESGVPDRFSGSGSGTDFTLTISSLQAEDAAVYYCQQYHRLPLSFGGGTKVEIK

Positions count from residue 1 of the parent VH; T28V puts V in place of T. The read-out is the apparent dissociation constant on a log10 scale (nM): the lower, the stronger. A mean of the replicates is given; it leaves out those without a signal. An entry "ND" has no value in the source: the pair was not observed among the diploids in that replicate. This suggests poor binding but is not conclusive. Values of this round are not directly comparable with the first-round values of the same sequences. Of ten entries with the parent sequence, four were seen in most replicates (averages 0.34 to 2.37), three in one and three in none, so single entries are noisy. The authors' rule: three or more of the six replicates give a measured affinity, fewer mean a poor binder. Three control strains display no target. For all heavy chain designs, 1% of the pairings with them gave a signal, with a median of 2.08 and one signal in twenty below 0.84, so weak values seen in few replicates may be background. For each scFv, signals with the empty controls are counted beside the result, with their mean in brackets. Where one sequence has several entries in the source, the replicates are listed entry by entry, parted by semicolons.

| changes | group | log10 Kd (nM) by replicate | mean log10 Kd (nM) | empty controls |
|---|---|---|---|---|
| T28V/R100K/S107T | Ctrl | ND ND ND 1.24 ND ND | 1.24 | 0 of 18 |
| N30R/V64T/A102R/S107V | Ctrl | ND ND ND ND ND ND | ND | 0 of 18 |
| F27T/L29V/N30L/G61I/S63K/R100Q/S107V | Ctrl | ND ND ND ND ND ND | ND | 0 of 18 |
| S31M/A101K | Ctrl | ND ND ND ND ND ND | ND | 0 of 18 |
| S53A/T104Y/F105G | Ctrl | ND ND ND ND ND ND | ND | 0 of 18 |
| F27M/S53A | Ctrl+GPLM_Gen | 0.41 0.34 1.17 1.36 1.06 0.95; 1.23 0.87 0.03 -0.54 0.44 0.64 | 0.66 | 0 of 36 |
| S31E/S63R/A102P/D106H | Ctrl | ND ND ND ND ND ND | ND | 0 of 18 |
| G61T/K65R/A101D/A102I | Ctrl | ND ND ND ND ND ND | ND | 0 of 18 |
| F59A/A101E | Ctrl | -0.18 -0.03 -0.03 0.25 -0.32 0.09 | -0.04 | 1 of 18 (1.87) |
| I34H/S53A/A102K | Ctrl | ND ND ND ND ND ND | ND | 0 of 18 |
| T28N/S31D/F59A | Ctrl | 0.60 -0.02 -0.44 -0.15 0.35 -0.26 | 0.01 | 0 of 18 |
| F105W | Ctrl | ND ND ND ND ND ND | ND | 0 of 18 |
| T28E/G99D/S107L | Ctrl | ND ND ND ND ND ND | ND | 0 of 18 |
| I34S/R56E/G61A | Ctrl | ND ND ND ND ND ND | ND | 0 of 18 |
| F27H/S31E/F59A/S63N/S107K | Ctrl | ND ND ND ND ND ND | ND | 0 of 18 |
| S63F/F105W | Ctrl | ND ND ND ND ND ND | ND | 0 of 18 |
| K65R/A102S | Ctrl | ND 2.07 ND ND ND ND | 2.07 | 1 of 18 (1.80) |
| S31D/Y32Q/S63N | Ctrl | ND ND ND ND ND ND | ND | 0 of 18 |
| T104W | Ctrl | ND ND ND ND ND ND; ND ND 1.02 ND 1.10 1.27; 2.04 ND ND ND ND ND; ND ND ND ND ND ND | 1.36 | 0 of 72 |
| G99C/R100G/A102T/T104A/F105G | Ctrl | ND ND ND ND ND 3.01 | 3.01 | 0 of 18 |
| T28E/R56E/F59Q/G61K/G103V | Ctrl | ND ND ND ND ND ND | ND | 0 of 18 |
| G26Q/T28S/G61S/S63D/T104F | Ctrl | ND ND ND ND ND ND | ND | 1 of 18 (2.76) |
| G26T/T28R/G61N/A101E/D106R | Ctrl | ND ND ND ND ND 2.93 | 2.93 | 0 of 18 |
| S31D/A101Q/D106K | Ctrl | ND ND 2.20 ND ND 5.08 | 3.64 | 1 of 18 (3.38) |
| S31E/R100A/D106S | Ctrl | 0.91 1.25 0.91 0.97 1.58 0.88 | 1.08 | 0 of 18 |
| F27E/D62G/S63E/R100E/A101F/D106T/S107V | Ctrl | ND ND ND ND ND ND | ND | 0 of 18 |
| F27T/G61M/S107N | Ctrl | ND ND ND ND ND ND | ND | 1 of 18 (1.19) |
| S31N/A101L/D106E | Ctrl | ND 1.55 ND ND ND 1.36 | 1.45 | 0 of 18 |
| S63D/A102S | Ctrl | ND 1.27 ND 1.42 ND 1.72 | 1.47 | 0 of 18 |
| T58A/G61H/R100S/A101N | Ctrl | ND ND 2.36 ND 1.76 0.98 | 1.70 | 0 of 18 |
| T28N/R56E/V64D/D106F | Ctrl | ND ND ND ND ND ND | ND | 0 of 18 |
| T28D/G103D/F105G | Ctrl | ND ND 3.06 ND ND ND | 3.06 | 1 of 18 (2.57) |
| R56V/G99T | Ctrl | ND ND ND ND ND ND | ND | 0 of 18 |
| D106M | Ctrl | ND ND ND 1.71 2.47 ND | 2.09 | 0 of 18 |
| S31D/G61E/K65D/R100G/D106K/S107K | Ctrl | ND ND ND ND ND ND | ND | 0 of 18 |
| G26H/Y60I/G61A | Ctrl | ND ND ND ND ND ND | ND | 2 of 18 (1.74) |
| L29I/S31Q/G99A/A101E/F105W | Ctrl | ND ND ND ND ND ND | ND | 0 of 18 |
| F59S/D106E | Ctrl | ND ND ND ND ND ND | ND | 0 of 18 |
| T28D/S31N/S63N/G99A | Ctrl | ND ND ND ND ND ND | ND | 1 of 18 (0.13) |
| S53F/S63D/R100D/A101T/S107T | Ctrl | 1.05 0.58 1.12 1.68 0.72 0.99 | 1.02 | 0 of 18 |
| N30R/Y32H/F59M | Ctrl | ND ND ND ND ND ND | ND | 0 of 18 |
| T28D/S31Q/I34Y | Ctrl | ND ND ND ND ND ND | ND | 0 of 18 |
| F27L/A101C | Ctrl | ND ND ND ND ND ND | ND | 0 of 18 |
| T28D/N30M/G61A/G99Q | Ctrl | 0.76 1.58 1.87 2.57 1.53 1.33 | 1.61 | 1 of 18 (2.37) |
| S31D/F59M/V64H/R100F/F105S/D106S | Ctrl | ND ND ND ND ND ND | ND | 0 of 18 |
| S53A/R100Y/A102I/D106R | Ctrl | ND ND ND ND ND ND | ND | 0 of 18 |
| T28C/S31D/F59Y/A101Q | Ctrl | 3.15 ND ND ND ND ND | 3.15 | 0 of 18 |
| L29I/G61K/F105Y/D106P | Ctrl | ND ND ND ND ND ND | ND | 0 of 18 |
| F59Q/G61Q | Ctrl | 2.16 ND ND ND ND ND | 2.16 | 0 of 18 |
| S31H/K65R/R100T/A101Q/A102M | Ctrl | ND ND ND ND ND ND | ND | 0 of 18 |
| S31E/G61Q/T104H | Ctrl | ND ND ND ND ND ND | ND | 0 of 18 |

Excerpt, the first 4 entries:

{"changes": "T28V/R100K/S107T", "group": "Ctrl", "log10 Kd (nM) by replicate": "ND ND ND 1.24 ND ND", "mean log10 Kd (nM)": "1.24", "empty controls": "0 of 18"}
{"changes": "N30R/V64T/A102R/S107V", "group": "Ctrl", "log10 Kd (nM) by replicate": "ND ND ND ND ND ND", "mean log10 Kd (nM)": "ND", "empty controls": "0 of 18"}
{"changes": "F27T/L29V/N30L/G61I/S63K/R100Q/S107V", "group": "Ctrl", "log10 Kd (nM) by replicate": "ND ND ND ND ND ND", "mean log10 Kd (nM)": "ND", "empty controls": "0 of 18"}
{"changes": "S31M/A101K", "group": "Ctrl", "log10 Kd (nM) by replicate": "ND ND ND ND ND ND", "mean log10 Kd (nM)": "ND", "empty controls": "0 of 18"}